Experiments:
BT474 cell xenograft = conditions: C.B-17 scid mice, once intravenously 1 mg/Kg
[1] = test system: BT474 (HER2+ human breast carcinoma) cells; assay: Cell proliferation assay (ATPLite), BT474 cells; format: cell-based; conditions: 3 days, ATP readout

trastuzumab-MC-T4
TGI (tumor growth inhibition) (BT474 cell xenograft): significant TGI compared to the control | toxicity based on animal weight measurements (BT474 cell xenograft): No toxicity was observed | potency for inhibition of tumor cell growth [1]: approximately equipotent and considerably more potent than the parent trastuzumab antibody

trastuzumab-dTSPEG-MMAF
TGI (tumor growth inhibition) (BT474 cell xenograft): comparable TGI to than the comparator ADCs | toxicity based on animal weight measurements (BT474 cell xenograft): No toxicity was observed | potency for inhibition of tumor cell growth [1]: approximately equipotent and considerably more potent than the parent trastuzumab antibody

trastuzumab-dTSPEG-T4
TGI (tumor growth inhibition) (BT474 cell xenograft): comparable TGI to than the comparator ADCs | toxicity based on animal weight measurements (BT474 cell xenograft): No toxicity was observed | potency for inhibition of tumor cell growth [1]: approximately equipotent and considerably more potent than the parent trastuzumab antibody
